ChEMBL document CHEMBL1142336, “Overcoming undesirable HERG potency of chemokine receptor antagonists using baseline lipophilicity relationships” (J Med Chem, 2008)

Sequences of proteins named here, by UniProt entry; tags and fusion partners are left off.
UniProt P51685, whole entry: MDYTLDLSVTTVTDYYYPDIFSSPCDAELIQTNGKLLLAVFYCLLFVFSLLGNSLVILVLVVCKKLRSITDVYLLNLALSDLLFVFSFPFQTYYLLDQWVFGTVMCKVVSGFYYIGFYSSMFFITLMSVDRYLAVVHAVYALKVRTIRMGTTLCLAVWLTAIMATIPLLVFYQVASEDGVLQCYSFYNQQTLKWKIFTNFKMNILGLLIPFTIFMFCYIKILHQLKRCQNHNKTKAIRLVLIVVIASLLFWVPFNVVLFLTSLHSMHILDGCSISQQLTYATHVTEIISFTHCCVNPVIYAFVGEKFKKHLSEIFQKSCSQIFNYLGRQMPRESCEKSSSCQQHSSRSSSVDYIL

Target: C-C chemokine receptor type 8 (Homo sapiens, UniProt P51685)
Test: Antagonist activity at CCR8 receptor
Type: functional

| IC50 [nM] | SMILES |
| --- | --- |
| 16.2 | COc1ccccc1Oc1ccccc1CN1CCC2(CC1)CCN(C(=O)c1ccccn1)CC2 |
| 18.2 | O=C(c1ccncc1)N1CCC2(CCN(Cc3cccc(Oc4ccccc4)c3)CC2)CC1 |
